{"source": "PubChem BioAssay AID1029", "about": "(Sanford-Burnham Center for Chemical Genomics, 2008)", "note": "The entries are a selection whose mix differs from that of the whole data set. Some tests of the compounds listed are not included; inactive here does not mean inactive elsewhere. Active and inactive are the calls of the source.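 The calls were made as follows: active = inhibition above the mean of the plate negative controls plus 5 SD (cut at about 13% in these data); inactive = the rest.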"}
{"assay": "inhibitors of macrophage phagocytosis, primary screen, imaging, J774A.1 cells, IgG beads (AID 1029);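 also: phagocytic index as fraction of beads internalized from green versus red external bead signal; plate controls were DMSO negative control for no effect and cytochalasin-D positive control for full effect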", "details": "J774A.1 macrophage IgG-bead phagocytosis, at 5 µM, active compounds read high"}
{"smiles": "CN(C)C1CCCC1OC(=O)C(O)(c1ccccc1)c1ccccc1", "note": "(stereo not drawn)", "inhibition": "inactive: -14%"}
{"smiles": "CCN1CCCC(OC(=O)C2(O)c3ccccc3C=Cc3ccccc32)C1", "note": "(stereo not drawn)", "inhibition": "inactive: -0.18%"}
{"smiles": "CN(C)c1cccc(C(=O)NCC2(N(C)C)CCCCC2)c1", "inhibition": "inactive: -0.8%"}
